Columns and labels:
Format in all cases: in vitro ADME
[1] = Stability test in simulated gastric fluid (SGF); settings: 24 hours
[2] = Stability test in simulated intestinal fluid (SIF)
Caco-2 cells = experiment: Caco-2 bi-directional permeability test

CC(C)C[C@@H](C(=O)Nc1ccn(C[C@@H](O)COC(=O)c2cccnc2)n1)N1CC(Oc2ccccc2Cl)=CC1=O [Compound A, (R)-3-(3-((S)-2-(4-(2-chlorophenoxy)-2-oxo-2,5-dihydro-1H-pyrrol-1-yl)-4-methylpentanamido)-1H-pyrazol-1-yl)-2-hydroxypropyl nicotinate]
Stability in SGF (in words) [1]: stable in SGF for 24 hours
Stability in SIF (in words) [2]: extensively degraded in SIF
Efflux transporter substrate (in words) (Caco-2 cells): likely to be the substrate for efflux transporters
Permeability from A side to B side (in words) (Caco-2 cells): low
Permeability from B side to A side (in words) (Caco-2 cells): high

Reference: patent publication US20260285835A1, “SOLID FORM OF PYRROLIDONE DERIVATIVE AS GLUCOKINASE ACTIVATOR” (priority 2023, published 2026)
